These results are taken from publication PMC9940855, “First-in-Class Dual Hybrid Carbonic Anhydrase Inhibitors and Transient Receptor Potential Vanilloid 1 Agonists Revert Oxaliplatin-Induced Neuropathy” (Journal of Medicinal Chemistry, 2023).

Entries after “also recorded” stand apart in the source; their conditions may differ.

The subject of the test is oxaliplatin-induced neuropathic pain (cold allodynia). The test is described as follows: Cold plate test in mouse model of oxaliplatin-induced neuropathic pain. Particulars: p.o.; for pain-relieving effect, in words: 30 and 100 mg/kg; for pain-relieving effect (licking latency, Cold plate test), in words: acute, 10–100 mg/kg; for reversal of oxaliplatin hypersensitivity, in words: higher dose (100 mg/kg).

With `NS(=O)(=O)c1ccc(NC(=S)N[C@@H]2CCN(c3ccc(C(F)(F)F)cn3)C2)cc1` [39a, (R)-4-(3-(1-(5-(Trifluoromethyl)pyridin-2-yl)pyrrolidin-3-yl)thioureido)benzenesulfonamide], the “pain-relieving effect, in words” value is on record as “significantly effective” and the “reversal of oxaliplatin hypersensitivity, in words” value is reported as “completely reverting oxaliplatin hypersensitive”. Further, the “pain-relieving effect (licking latency, Cold plate test), in words” value (day 15, listed as (R)-39a) was “far more effective and lasting compared to its (S)-counterpart”. Further, for the setting “day 15, listed as (S)-39a”, the “pain-relieving effect (licking latency, Cold plate test), in words” value is “slightly better profile”.

`NS(=O)(=O)c1cccc(NC(=S)N[C@@H]2CCN(c3ccccn3)C2)c1` [36a, (R)-3-(3-(1-(Pyridin-2-yl)pyrrolidin-3-yl)thioureido)benzenesulfonamide]: where the note is “day 15, listed as (R)-36a”, the “pain-relieving effect (licking latency, Cold plate test), in words” value was “dose-dependent effectiveness; also recorded: moderate and shorter relieving outcomes”.

In the case of `NS(=O)(=O)c1ccc(NC(=S)N[C@H]2CCN(c3ccc(C(F)(F)F)cn3)C2)cc1` [39b, (S)-4-(3-(1-(5-(Trifluoromethyl)pyridin-2-yl)pyrrolidin-3-yl)thioureido)benzenesulfonamide], the “pain-relieving effect, in words” value is listed as “significantly effective” and the “reversal of oxaliplatin hypersensitivity, in words” value is recorded as “completely reverting oxaliplatin hypersensitive”.
